# Assay results: PubChem BioAssay AID1346378 (National Center for Advancing Translational Sciences (NCATS), 2018)
# Sequences of proteins named here, by UniProt entry; tags and fusion partners are left off.
# UniProt Q9BTU6, whole entry: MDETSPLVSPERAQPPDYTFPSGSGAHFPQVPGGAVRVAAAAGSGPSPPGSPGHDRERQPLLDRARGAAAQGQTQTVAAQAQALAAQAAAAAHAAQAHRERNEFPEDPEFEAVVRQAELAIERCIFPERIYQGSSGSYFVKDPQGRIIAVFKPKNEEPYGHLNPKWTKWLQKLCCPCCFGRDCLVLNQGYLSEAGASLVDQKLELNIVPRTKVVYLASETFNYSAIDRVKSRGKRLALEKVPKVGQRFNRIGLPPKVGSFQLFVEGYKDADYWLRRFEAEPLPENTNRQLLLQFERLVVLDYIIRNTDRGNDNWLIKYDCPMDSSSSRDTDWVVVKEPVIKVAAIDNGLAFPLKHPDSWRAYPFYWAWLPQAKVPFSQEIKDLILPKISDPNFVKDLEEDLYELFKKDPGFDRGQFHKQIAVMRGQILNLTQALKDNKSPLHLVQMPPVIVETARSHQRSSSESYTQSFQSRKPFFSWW
# Only a part is listed here, and it is no random draw. Some structures show a salt or complex split into parts, the way the source records it. Activity calls are given as the source filed them. No stated cut-off is given here; in the data, active means activity change below about -50%; inconclusive means mostly about -30% to -49%; inactive means weaker than that.
# Molecular target: Phosphatidylinositol 4-kinase type 2-alpha (Homo sapiens) (UniProt Q9BTU6)
# Experiment: qHTS for small molecular inhibitors of PI4K2A;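 further: -100% = wells without enzyme as full effect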
# Conditions: purified PI4K2A, ADP-Glo luminescence, 1 h; at 76.9 µM; hits give low values
# Method in brief: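 Compounds are screened against recombinant PI4K2A using PI as substrate and ATP, the latter dispensed at 300 microM. Reactions run one hour at ambient temperature before ADP-Glo detection; full inhibition defined by wells lacking enzyme.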
row,Structure (SMILES),"activity change, negative = inhibition"
1,CCOc1ncccc1C(=O)NCC1(N2CCOCC2)CCCCC1,inactive: 7.03%
2,COc1ccc(Cl)cc1C(=O)NCC1(N2CCOCC2)CCCCC1,inactive: -2.51%
3,O=C1C(O)=C([N+](=O)[O-])C(=O)C(O)=C1[N+](=O)[O-],inactive: -17%
4,O=C(NCC1(N2CCCCC2)CCCCC1)c1ccc(Cl)s1,inactive: 2.69%
5,N#CC1(Nc2ccccc2)CCN(Cc2ccccc2)CC1,inactive: -0.941%
6,O=c1[nH]c2ccccc2n1C1CCN(C(c2cc3ccccc3o2)c2nnnn2C2CCCCC2)CC1 (stereo unspecified),inactive: 5.37%
7,O=C(OC1CN2CCC1CC2)C1c2ccccc2Oc2ccccc21 (stereo unspecified),inactive: 2.67%
8,CCCCn1nnnc1C(c1ccc(OC)cc1)N1CCC(n2c(=O)[nH]c3ccccc32)CC1 (stereo unspecified),inactive: -3.28%
9,CCOC(=O)N1CCC(Nc2ccc(OC)cc2)CC1,inactive: 1.81%
10,Cc1cc(C)cc(N(C(=O)c2ccccc2)C2CCN(C(=O)OC(C)(C)C)CC2)c1,inactive: 5.32%
11,O=C(NCC1(N2CCCCC2)CCCCC1)c1ccc(Cl)nc1,inactive: -11.1%
12,O=c1[nH]c2ccccc2n1C1CCN(C(c2ccccc2OC(F)(F)F)c2nnnn2C2CCCCC2)CC1 (stereo unspecified),inactive: 3.25%
13,O=C(NCC1(N2CCOCC2)CCCCC1)c1cc2ccccc2o1,inactive: -4.89%
14,Cc1cccc(NC2(C#N)CCN(Cc3ccccc3)CC2)c1,inactive: -2.58%
15,CCOC(=O)N1CCC(=O)CC1,inactive: -2.01%
16,CSc1ccccc1C(=O)NCC1(N2CCCCC2)CCCCC1,inactive: 1.72%
17,COc1ccc(C(=O)NCC2(N3CCCCC3)CCCCC2)c(OC)c1OC,inactive: -6.45%
18,CC(C)(C)OC(=O)N1CCC(N(C(=O)c2ccccc2)c2ccc(F)cc2)CC1,inactive: 1.67%
19,CCC(c1nnnn1C1CCCC1)N1CCC(n2c(=O)[nH]c3ccccc32)CC1 (stereo unspecified),inactive: 1.01%
20,COc1ccc(C(=O)NCC2(N3CCCCC3)CCCCC2)cc1,inactive: -6.03%
21,CCCCn1nnnc1C(CC)N1CCC(n2c(=O)[nH]c3ccccc32)CC1 (stereo unspecified),inactive: 7.13%
22,O=C(NCC1(N2CCCCC2)CCCCC1)c1cccs1,inactive: -0.652%
23,CCCCn1nnnc1C(c1cccs1)N1CCC(n2c(=O)[nH]c3ccccc32)CC1 (stereo unspecified),inactive: 1.59%
24,O=C(NCC1(N2CCCCC2)CCCCC1)c1ccc(=O)[nH]c1,inactive: -3.22%
25,CCOC(=O)N1CCC(Nc2cccc(C)c2)CC1,inactive: -1.34%
26,COc1cc(C(=O)NCC2(N(C)C)CCCCC2)ccc1OC(F)F,inactive: -3.23%

row,Structure (SMILES),"activity change, negative = inhibition"
1,O=c1[nH]c2ccccc2n1C1CCN(C(c2cccc3ccccc23)c2nnnn2C2CCCC2)CC1 (stereo unspecified),inactive: -1.37%
2,O=c1[nH]c2ccccc2n1C1CCN(C(c2ccccc2)c2nnnn2C2CCCCC2)CC1 (stereo unspecified),inactive: 2.39%
3,COc1ccccc1C(=O)NCC1(N2CCOCC2)CCCCC1,inactive: 0.157%
4,CCOC(=O)N1CCC(Nc2ccc(F)cc2)CC1,inactive: 2.38%
5,COc1ccc(NC2CCN(CCc3ccccc3)CC2)c(OC)c1,inactive: -2.23%
6,CCCCOc1ccc(C(=O)NCC2(N3CCOCC3)CCCCC2)cc1,inactive: -0.726%
7,CCCCn1nnnc1C(c1cc2ccccc2o1)N1CCC(n2c(=O)[nH]c3ccccc32)CC1 (stereo unspecified),inactive: -2.3%
8,O=P1(N(CCCl)CCCl)SCCCS1,inactive: 1.2%
9,O=C(NCC1(N2CCCCC2)CCCCC1)c1ccc(F)cc1,inactive: 0.831%
10,O=C1CCN(Cc2ccccc2)CC1,inactive: 0.373%
11,O=C(NCC1(N2CCOCC2)CCCCC1)c1ccc(Cl)cc1,inactive: -1.66%
12,CC(C)(C)n1nnnc1C(c1ccccc1)N1CCC(n2c(=O)[nH]c3ccccc32)CC1 (stereo unspecified),inactive: 1.78%
13,CCOc1ccc(C)cc1CN(CCCl)CCCl,inactive: 3.13%
14,O=C(NCC1(N2CCOCC2)CCCCC1)c1cc(=O)[nH]c2ccccc12,inactive: 2.92%
15,COc1cc(C(=O)NCC2(N3CCCCC3)CCCCC2)ccc1OC(F)F,inactive: 1.1%
16,COc1ccc(NC2CCN(C(=O)OC(C)(C)C)CC2)cc1,inactive: -0.31%
17,CC(C)c1ccc(C(=O)NCC2(N3CCOCC3)CCCCC2)cc1,inactive: 1.74%
18,CN1CCN(CCOC(=O)C(O)(c2ccccc2)c2ccccc2)CC1,inactive: 2.23%
19,CCCCn1nnnc1C(c1cccc2ccccc12)N1CCC(n2c(=O)[nH]c3ccccc32)CC1 (stereo unspecified),inactive: -1.26%
20,O=[N+]([O-])c1cc([N+](=O)[O-])c(NCC2CCS(=O)(=O)C2)c([N+](=O)[O-])c1 (stereo unspecified),inactive: -2.03%
21,O=C(NCC1(N2CCCCC2)CCCCC1)c1cccc(C(F)(F)F)c1,inactive: -4.86%
22,CCCOc1cccc(C(=O)NCC2(N3CCOCC3)CCCCC2)c1,inactive: 1.72%
23,O=c1[nH]c2ccccc2n1C1CCN(C(c2ccccc2OC(F)(F)F)c2nnnn2C2CCCC2)CC1 (stereo unspecified),inactive: 2.97%
24,N#CC1(Nc2ccccc2)CCN(CCc2ccccc2)CC1,inactive: 8.75%
25,CCN1CCC(Nc2ccc(Cl)cc2)CC1,inactive: -2.37%
26,O=C(NCC1(N2CCCCC2)CCCCC1)c1cccc([N+](=O)[O-])c1,inactive: 5.74%

row,Structure (SMILES),"activity change, negative = inhibition"
1,CCOc1ccc(C(=O)NCC2(N3CCOCC3)CCCCC2)cc1,inactive: -3.93%
2,CSc1ccc(C(=O)NCC2(N3CCOCC3)CCCCC2)cc1,inactive: 6.82%
3,O=C(NCC1(N2CCCCC2)CCCCC1)c1ccc(OC(F)F)cc1,inactive: 7.81%
4,CC(C)(C)n1nnnc1C(c1ccccc1OC(F)(F)F)N1CCC(n2c(=O)[nH]c3ccccc32)CC1 (stereo unspecified),inactive: -4.55%
5,COc1ccc(C(c2nnnn2C2CCCC2)N2CCC(n3c(=O)[nH]c4ccccc43)CC2)cc1 (stereo unspecified),inactive: -1.43%
6,O=[N+]([O-])c1cc([N+](=O)[O-])c(Nc2ccc(Cl)cc2)c([N+](=O)[O-])c1,inactive: -4.83%
7,O=C(NCC1(N2CCOCC2)CCCCC1)c1ccccc1Br,inactive: -1.24%
8,CCCOc1ccc(C(=O)NCC2(N(C)C)CCCCC2)cc1OC,inactive: -1.3%
9,CCCCOc1ccccc1C(=O)NCC1(N2CCOCC2)CCCCC1,inactive: -2.74%
10,Cc1ccc(C(=O)NCC2(N(C)C)CCCCC2)o1,inactive: -0.253%
11,O=C(OC1CN2CCC1CC2)c1ccc([N+](=O)[O-])cc1 (stereo unspecified),inactive: 9.55%
12,CN1CCC(Nc2cccc(F)c2)CC1,inactive: 0.538%
13,O=C(NCC1(N2CCCCC2)CCCCC1)c1cncc(Br)c1,inactive: -1.65%
14,COc1ccc2c(c1O)-c1c(O)c(OC)cc3c1[C@H](C2)[N+](C)(C)CC3.O=[N+]([O-])c1cc([N+](=O)[O-])c([O-])c([N+](=O)[O-])c1[O-],inactive: -4.49%
15,O=C(NCC1(N2CCOCC2)CCCCC1)c1cc(F)c(F)cc1Cl,inactive: -2.32%
16,CCC(c1nnnn1C(C)(C)C)N1CCC(n2c(=O)[nH]c3ccccc32)CC1 (stereo unspecified),inactive: -0.446%
17,COc1cc(OC)c(C(=O)NCC2(N(C)C)CCCCC2)cc1OC,inactive: -9.75%
18,CCCCn1nnnc1C(c1ccnc2ccccc12)N1CCC(n2c(=O)[nH]c3ccccc32)CC1 (stereo unspecified),inactive: -5.73%
19,CCCCn1nnnc1C(c1ccccc1OC(F)(F)F)N1CCC(n2c(=O)[nH]c3ccccc32)CC1 (stereo unspecified),inactive: -2.72%
20,CC(C)c1ccc(NC2CCN(C(=O)OC(C)(C)C)CC2)cc1,inactive: -12.9%
21,CN(C)c1cccc(C(=O)NCC2(N3CCCCC3)CCCCC2)c1,inactive: -3.03%
22,O=[N+]([O-])c1cc([N+](=O)[O-])c(OC2CCCCC2O)c([N+](=O)[O-])c1 (stereo unspecified),inactive: 2.55%
23,COc1ccc(CN(CCCl)CCCl)cc1Cl,inactive: -4.55%
24,COC(=O)C1(Nc2ccccc2)CCN(Cc2ccccc2)CC1,inactive: 0.494%
